One may read the IC50 as the midpoint of a concentration-inhibition curve.

The text below walks through data of ChEMBL document CHEMBL1131298 (J Med Chem, 1998).

This test in a line: Cytotoxicity was evaluated against LS174T-stCPG2(Q)3-expressing cell clone. Type of test: functional, Homo sapiens. The essentials: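 LS174T colon cells stably transfected with surface-tethered mutant CPG2 (stCPG2(Q)3) plasmid; 2 × 10^6 cells seeded, confluent at 48 h. Compound added from DMSO stock in full medium, a similar dose re-added after 1 h, then 20 h more. Cells reseeded in quadruplicate at ~2 × 10^3/well, grown to control confluence; sulforhodamine-B at 590 nm, IC50 by interpolation.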

Turning to `Nc1ccc(N(CCCl)CCCl)cc1`, the IC50 was found to be 340 nM.

`Oc1ccc(N(CCCl)CCCl)cc1` had an IC50 of 3780 nM.
